## Ab-14 light chain CDR variants: yeast mating affinities

All variants were tested on one target, the spike HR2 peptide PDVDLGDISGINAS (SARS-CoV-2).

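This is the validation round: designs drawn from the data on random variants, tested in the same kind of assay. Their group label is 14L_GP_HC (GP: Gaussian process model; HC: hill climbing; a sequence that several methods proposed may carry one label only). In AlphaSeq, yeast of one mating type display the scFv and yeast of the other type display the target. After mating in shaken culture at 30 °C for 16 h, diploids were selected and their barcode pairs sequenced. The ratio of observed to expected reads was calibrated, replicate by replicate, on BCL2-family standards whose Kd was known from biolayer interferometry. The assay was run in six technical replicates.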

Parent: Ab-14, a human scFv built as VH, the linker GGGGSGGGGSGGGGS, VL. Only the CDRs of the light chain vary.
VH: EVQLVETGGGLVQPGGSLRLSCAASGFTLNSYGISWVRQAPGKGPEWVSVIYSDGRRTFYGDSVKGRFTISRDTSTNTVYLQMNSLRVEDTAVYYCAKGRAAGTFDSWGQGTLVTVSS
VL: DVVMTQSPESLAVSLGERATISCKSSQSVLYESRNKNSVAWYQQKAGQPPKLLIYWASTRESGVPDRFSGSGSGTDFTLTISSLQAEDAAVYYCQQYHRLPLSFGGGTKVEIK

Variants are written as CDR1, CDR2 and CDR3 of the light chain (limits as in the source). Parent: KSSQSVLYESRNKNSVA, WASTRES, QQYHRLPLS. The read-out is the apparent dissociation constant on a log10 scale (nM): the lower, the stronger. A pair that was not seen in that replicate is written "n.d."; this usually means weak binding, but a binder can also be missed. Empty control strains, which show no peptide, gave a signal in 4% of pairings with all light chain designs; the median was 2.64 and 95% of these signals were weaker than 1.59. No background was subtracted. The control count says in how many pairings with the empty strains this scFv gave a signal, with their mean in brackets.

| CDR-L1 | CDR-L2 | CDR-L3 | log10 Kd, replicates | control signals |
|---|---|---|---|---|
| KSPQSWLYESRNKNSVA | HASTRED | QSYHRLPLS | 0.56 / 0.52 / 0.58 / 0.64 / 0.64 / 0.84 | 0 of 18 |
| KMSQSVLMESRNCNSVA | DASTRES | QQYHRLPLS | 0.49 / 0.32 / 0.21 / 0.17 / 0.00 / 0.70 | 2 of 18 (3.19) |
| KVSQSVLYESRMKNSVA | HASTRCS | QQYHRLPLE | 0.72 / 0.88 / 0.67 / 0.71 / 0.54 / 1.34 | 2 of 18 (2.37) |
| KVRQSTLYQSRNKNSVA | GASTRES | QQYHRLPLS | 1.72 / 1.37 / 1.32 / 1.34 / 2.53 / 2.08 | 2 of 18 (2.76) |
| KSLQSVPYESRNKNSVA | HASTREQ | QQYHFLPLS | 0.71 / 0.90 / 0.52 / 0.68 / 0.68 / 0.98 | 3 of 18 (2.78) |
| KSSPSVWYESHNKNSVA | NASTRMS | QQYHRLPLS | 0.35 / 0.06 / 0.10 / 0.21 / 0.05 / 0.03 | 0 of 18 |
| KFSQSQLYESRTSNRVA | NASTRES | QQYHRLPLS | 0.34 / -0.01 / 0.07 / -0.41 / 0.41 / 0.32 | 3 of 18 (1.71) |
| KVSQSVLYESGNKNSVA | NASTRES | QQYHRLPLS | -0.04 / -0.08 / -0.14 / -0.38 / -0.29 / -0.07 | 1 of 18 (2.95) |
| KLSQEKLYESRNKNSVA | DASTRES | QQYHRLPLS | 0.07 / 0.12 / -0.36 / -0.48 / -0.22 / -0.20 | 0 of 18 |
| HLSWSVLYESRNKNSVA | NASTRES | GQYHRLPLS | 0.81 / 0.70 / 0.73 / 0.59 / 0.51 / 0.67 | 1 of 18 (3.12) |
| KIVQSWLYESRNKNSVA | GASTRES | QQYHRLPLS | 0.47 / 0.07 / 0.20 / 0.05 / 0.26 / 0.15 | 0 of 18 |
| KVSQSVLYESRTKNSVA | NASTRES | QQVHRLPLS | 0.59 / 0.28 / 0.48 / 0.06 / 0.17 / 0.72 | 2 of 18 (2.94) |
| KLSQSVLYESRNKNSVA | NASTRES | QQYHRLPSS | n.d. / n.d. / n.d. / 2.28 / n.d. / n.d. | 3 of 18 (2.71) |
| KSSGSYLYESRNENSVA | EASTREQ | QQYHRLPLS | 0.22 / 0.07 / 0.16 / -0.25 / 0.04 / -0.09 | 0 of 18 |
| HSSPSVAYESRNKNSVA | NASTREM | QQYHRLPLS | 0.47 / 0.24 / 0.09 / 0.16 / 0.09 / 0.47 | 0 of 18 |
| KLRQSTLYESRNKNAVA | WASTRES | QQYHRLPLS | 0.75 / 0.69 / 0.68 / 0.55 / 0.73 / 0.96 | 0 of 18 |
| KSGQGGLYESRNKNSVA | GASQRWS | QQYHRLPLS | 0.23 / 0.22 / 0.07 / -0.01 / 0.18 / 0.26 | 1 of 18 (2.33) |
| KLSQQTLYESRNKNSVA | SASTREE | QQYHRLPLS | -0.16 / -0.42 / -0.34 / -0.64 / -0.29 / -0.19 | 0 of 18 |
| KSSWSVLFESRNKNSVA | DASTRES | QQYHRLPLS | 0.23 / 0.29 / 0.15 / 0.04 / 0.21 / 0.38 | 1 of 18 (2.31) |
| KSSQSDLYESRWKNSVA | GASQRES | QQYHRLPLS | 0.79 / 1.31 / 1.16 / 0.87 / 1.31 / 1.55 | 1 of 18 (2.89) |
| KYYPSYLYESRNKNSVA | QASTRES | QQYHRLPLS | 0.42 / 0.33 / 0.34 / 0.23 / 0.39 / 0.29 | 0 of 18 |
| KSSQSVLMQSRNKNSVA | DASTRES | QQYHRLPLS | n.d. / n.d. / n.d. / n.d. / n.d. / n.d. | 0 of 18 |
| KSSISGLYESRNKNSVA | EASTREQ | QQYHRLPLS | 0.49 / 0.33 / -0.26 / 0.09 / 0.48 / -0.04 | 0 of 18 |
| KSSQSVLIQSRNKNSVA | DASTRES | QQYHRLPLS | 0.01 / -0.06 / -0.04 / -0.15 / -0.12 / 0.10 | 0 of 18 |
| KFSQSWGYESRNKNSVA | GASTRES | QQYHRLPLS | 0.48 / 0.10 / 0.03 / 0.01 / 0.10 / 0.32 | 0 of 18 |
| KSSQSVLGEARNKNSVA | DASTRES | QQYHRLPLS | 0.46 / 0.29 / 0.34 / -0.11 / 0.16 / 0.21 | 0 of 18 |
| IAVQSVLYESRNKNSVA | GASTRES | QQYHRLPLI | 1.46 / 1.08 / 1.01 / 0.76 / 1.17 / 1.85 | 3 of 18 (2.11) |
| KFSQSVLYESRLSNSVA | NASTRES | QQYHRLPLS | -0.14 / 0.02 / 0.00 / -0.11 / 0.03 / -0.16 | 0 of 18 |
| HSSPSVVYESRNKNSVA | NASTRES | QQYHRLPLS | 0.18 / 0.13 / 0.13 / 0.12 / 0.09 / 0.25 | 3 of 18 (3.12) |
| KLKQSTLYESRNQNSVA | NASTRES | QQYHRLPLS | -0.10 / -0.21 / -0.35 / -0.41 / -0.32 / -0.21 | 3 of 18 (3.00) |
| KSLQSVLYESRNKNNVA | HASTRED | QQYHRLPLS | 0.35 / 0.03 / 0.09 / -0.15 / 0.16 / 0.06 | 0 of 18 |
| KLQQQMLYESRNKNSVA | SASTREE | QQYHRLPLS | -0.18 / -0.38 / -0.39 / -0.32 / -0.34 / -0.12 | 1 of 18 (3.02) |
| KISQSVLYESVNKNSVA | DASTRES | QQYHRLPLS | 0.12 / -0.22 / -0.23 / -0.27 / -0.27 / 0.01 | 1 of 18 (1.92) |
| KSSISYLYESRNQNSVA | EASTRES | QQYHRLPLS | 0.34 / 0.31 / 0.36 / 0.34 / 0.28 / 0.33 | 2 of 18 (2.36) |
| KSSISYLYESRNKNSVA | EASTREV | QQYHRLPLM | 0.92 / 0.58 / 0.53 / 0.48 / 0.80 / 0.68 | 0 of 18 |
| KSSQSWLYESRNKNSVA | GASDRES | QQYHRLPLS | -0.34 / -0.33 / -0.33 / -0.86 / -0.68 / -0.52 | 0 of 18 |
| KCSQSVLYESRNKNAVA | DASTRES | QQYHWLPLS | 0.42 / 0.30 / 0.23 / -0.03 / 0.36 / 0.62 | 2 of 18 (2.10) |
| KGSQEKLYESRNKNSVA | DASTRES | QQYHRLPLS | -0.17 / -0.16 / -0.40 / -0.36 / -0.37 / -0.09 | 0 of 18 |
| KSQQGVLYESRNWNSVA | GASTRES | QQYHRLPLS | -0.01 / -0.02 / -0.08 / -0.27 / -0.03 / 0.03 | 3 of 18 (2.92) |
| KSSQSVDRESRNKNSVA | DASTREQ | QQYHRLPLS | 0.24 / -0.02 / -0.12 / 0.30 / -0.05 / 0.59 | 0 of 18 |

Of ten entries with the parent sequence, four were seen in most replicates (averages 0.34 to 2.37), three in one and three in none, so single entries are noisy. The range of this assay differs from that of the first round, and the authors advise against merging the two. The authors' rule: three or more of the six replicates give a measured affinity, fewer mean a poor binder.

The measurements come from Li et al. 2023 (doi:10.1038/s41467-023-39022-2) through the FLAb antibody collection.